Values of other authors, collected in patent publication US20260028410A1, “TREATMENT OF GRAFT VERSUS HOST DISEASES USING ANTI-CD122 ANTIBODY” (FORTE SUBSIDIARY, INC., priority 2023, published 2026).
pKd: −log10 of the molar value.

Molecular target: high-affinity heterotrimer IL-αβγ receptor
Settings: ligand affinity for IL-αβγ receptor combinations; cited from earlier work

## IL2: interleukin 2, cytokine
  pKd: ~11.00
